Columns and labels:
Assay in all cases: Combination (synergy) cell proliferation assay with pegcrisantaspase
Type in all cases: cell-based
HL-60 cell line = details: anti-cancer agent in combination with pegcrisantaspase; HL-60 (AML)
Protocol: (§1) Plate preparation. The stocks of the mixtures and single agents were diluted in DMSO or 0.9% sodium chloride to generate a 7-points dose-response series. After further 31.6 times dilution in 20 mM sterile Hepes buffer pH 7.4 (reference compounds) or medium (pegcrisantaspase), 5 μl of pegcrisantaspase solution, and 5 μl of reference compound was added to 40 μl pre-plated cells in duplicate in a 384-well assay plate. The final DMSO concentration during incubation was 0.4% in all wells.
(§2) Cell proliferation assay. A cell assay stock was thawed and diluted in appropriate medium and dispensed in a 384-well plate, depending on the cell line used, at a concentration of 800-3200 cells per well in […]: i.e., DB: 800 cells per well; RL: 1000 cells per well; MV-4-11: 1600 cells per well; KG-1, HL-60 and HT 3200 cells per well. For each used cell line the cell density was optimized previously. The margins of the plate were filled with phosphate-buffered saline. Plated cells were incubated in a humidified atmosphere of 5% CO2 at 37° C. After 24 hours, 5 μl of pegcrisantaspase solution, and 5 μl of reference compound was added, and plates were further incubated for another 72 hours. After 72 hours, plates were cooled in 30 minutes to room temperature and 25 μl of ATPlite 1Step™ (PerkinElmer) solution was added to each well, and subsequently shaken for 2 minutes. After 5 minutes of incubation in the dark at room temperature, the luminescence was recorded on an Envision multimode reader (PerkinElmer).
(§3) Controls: t=0 signal. On a parallel plate, 40 μl cells were dispensed in quadruplicate and incubated in a humidified atmosphere of 5% CO2 at 37° C. After 24 hours, plates were cooled to room temperature in 30 minutes. 5 μl DMSO-containing Hepes buffer, 5 μl 0.9% sodium chloride-containing medium and 25 μl ATPlite 1Step™ solution were added and subsequently mixed for 2 minutes. Luminescence was measured after 10 minute incubation (=luminescencet=0) in the dark.
(§4) Cell growth control. The cellular doubling times of all cell lines are calculated from the t=0 hours and t=end growth signals of the untreated cells. […]
(§5) Maximum signals. On each 384-well plate, the maximum luminescence was recorded after incubation for 72 hours without compound in the presence of 0.4% DMSO. […] This average is defined as: luminescenceuntreated,t=72h. […]
(§6) luminescence=bottom+(top-bottom)/(1+10^(logIC50−log[cpd])−hill))
(§7) [cpd] is the compound concentration tested. hill is the Hill-coefficient. […] The CI is one of the most widely used quantitative indications of synergy. […]
(§8) CI is defined for a certain percentage cell viability (V), which is the signal related to a non-exposed control: V=100%×luminescencetreated,t=72h/luminescenceuntreated,t=72h. […]

KG-1 = details: anti-cancer agent in combination with pegcrisantaspase; KG-1 (AML)
Protocol: as §1, §2, §3, §4, §5, §6, §7, §8

DB = details: anti-cancer agent in combination with pegcrisantaspase; DB (DLBCL)
Protocol: as §1, §2, §3, §4, §5, §6, §7, §8

HT = details: anti-cancer agent in combination with pegcrisantaspase; HT (DLBCL)
Protocol: as §1, §2, §3, §4, §5, §6, §7, §8

| Compound | conclusion (synergy) (HL-60 cell line) | conclusion (synergy) (KG-1) | conclusion (synergy) (DB) | conclusion (synergy) (HT) |
| --- | --- | --- | --- | --- |
| CC(C)C[C@H](NC(=O)[C@H](Cc1ccccc1)NC(=O)c1cnccn1)B(O)O [bortezomib] | antagonism | synergy (CI < 1.0: synergy) | – | – |
| CC[C@]1(O)C[C@H]2CN(CCc3c([nH]c4ccccc34)[C@@](C(=O)OC)(c3cc4c(cc3OC)N(C=O)[C@H]3[C@@](O)(C(=O)OC)[C@H](OC(C)=O)[C@]5(CC)C=CCN6CC[C@]43[C@@H]65)C2)C1 [vincristine] | – | – | strong synergy (CI < 0.3: strong synergy) | synergy (CI < 1.0: synergy) |

Reference: patent US20230173042A1, “METHODS OF TREATMENT WITH ASPARAGINASE” (JAZZ PHARMACEUTICALS IRELAND LTD., priority 2017, published 2023)
